From patent US20090234018A1, “Non-Standard Amino Acid Conjugates of Amphetamine and Processes for Making and Using the Same” (priority 2006, published 2009)

Columns and labels:
[1] = rat, oral; plasma d-amphetamine
[2] = Oral PK study of Lys-Amp, hArg-Amp, Orn-Amp and Cit-Amp (Example 9); settings: rat
[3] = Average of 4 oral PK studies of Lys-Amp and hArg-Amp (Example 7, Table 3); settings: average of 4 oral studies, n=20
[4] = Oral gavage PK study of Lys-Amp and hArg-Amp, plasma d-amphetamine by ELISA (Example 7); settings: rat, […] d-amphetamine freebase equivalent

## C[C@@H](Cc1ccccc1)NC(=O)[C@@H](N)CCCCN=C(N)N.Cl.Cl [hArg-Amp, l-homoarginine-d-amphetamine dihydrochloride]
[1]
  Tmax: 4 h
[2]
  Tmax compared to Lys-Amp: significantly shifted the Tmax
[3]
  Tmax: 4 h
[4]
  Tmax: 4 h

Like-named read-outs stand apart in the source and are kept apart here.
